In patent US20260256870A1, “SKIN COMPOSITION” (Eaderm Co., Ltd., priority 2019, published 2026):

System: COL17A1
Test: COL17A1 immunostaining of skin after hydroxyurea administration
Details: 7-week-old C57BL6 mice, three times a month, tissues collected three months later (FIG. 17)

- expression of COL17A1 in the basal layer: markedly decreased
Compound: NC(=O)NO [Hydroxyurea]
